# Reference: PubChem BioAssay AID1458 (National Center for Advancing Translational Sciences (NCATS), 2008)
# This is a selection; strong and weak results do not stand in their true shares. Results filed as inconclusive are left out. Some structures show a salt or complex split into parts, the way the source records it. Active and inactive are the calls of the source. The call rests on the fitted dose curve; in most records, active means well fitted activation curve with a large enough effect; inconclusive means small, poorly fitted or top-dose-only effect; inactive means no such curve, though single readings can be large or run the other way.
# Assay: qHTS Assay for Enhancers of SMN2 Splice Variant Expression; further: % of control where 0% means no effect; nearly all actives have a fitted effect of over 55% in size
# Settings: HEK293 SMN2-luciferase splicing reporter, luminescence, 30-36 h; at 46.1 µM (top of the series) unless noted
row,Structure (SMILES),"activity change, positive = activation"
1,COc1ccccc1OP(C)(=O)Nc1ccc(C)cc1C (stereo unspecified),inactive: 4.9%
2,CP(=O)(Nc1ccccn1)Oc1ccccc1 (stereo unspecified),inactive: -1.4%
3,Cc1c(NP(C)(=O)Oc2ccc(C(C)C)cc2)c(=O)n(-c2ccccc2)n1C (stereo unspecified),inactive: -16%
4,CN(C)CCOC(=O)C(O)(c1ccccc1)C1CCCC1 (stereo unspecified),inactive: -6.65%
5,COc1ccc(OP(C)(=O)Nc2ccccn2)cc1 (stereo unspecified),inactive: 6.26%
6,CP(=O)(OCCOc1ccccc1)OCCOc1ccccc1,inactive: 2.37%
7,CP(=O)(Nc1ccc(Cl)cc1Cl)Oc1ccccc1 (stereo unspecified),inactive: -12.2%
8,Cc1nc2ccc3ccccc3c2o1.O=[N+]([O-])c1cc([N+](=O)[O-])c(O)c([N+](=O)[O-])c1,inactive: 10.5%
9,COc1ccc(OP(C)(=O)Nc2ccccc2Br)cc1 (stereo unspecified),inactive: -10.9%
10,C/C1=C2N=C(/C=C3N=C(/C(C)=C4\[N-][C@@](C)([C@H]5N=C1[C@@](C)(CCC(=O)NC[C@H](C)OP(=O)([O-])O[C@@H]1[C@H](O)[C@H](n6cnc7cc(C)c(C)cc76)O[C@@H]1CO)[C@@H]5CC(N)=O)[C@](C)(CC(N)=O)[C@H]4CCC(N)=O)[C@@](C)(CC(N)=O)[C@@H]\3CCC(N)=O)C(C)(C)[C@@H]/2CCC(N)=O.[C-]#N.[Co+3],inactive: -5.65% [at 20.6 µM]
11,CP(=O)(OC12CC3CC(CC(C3)C1)C2)OC12CC3CC(CC(C3)C1)C2,inactive: -9.84%
12,CCOC(=O)c1ccc(NP(C)(=O)Oc2ccc(Cl)cc2)cc1 (stereo unspecified),inactive: -8.02%
13,CN(C)C(=O)c1c([N+](=O)[O-])cc([N+](=O)[O-])cc1[N+](=O)[O-],inactive: -0.846%
14,CP(=O)(Nc1ccc(Cl)cc1)Oc1ccc(F)cc1 (stereo unspecified),inactive: -18%
15,CC(C)(C)c1ccc(OP(C)(=O)O)cc1,inactive: 7.32%
16,CCc1ccc(OP(C)(=O)Nc2cccnc2)cc1 (stereo unspecified),inactive: -2.89%
17,CP(=O)(Oc1ccccc1)N1CCOC1=O (stereo unspecified),inactive: -7.51%
18,OCCSCCO,inactive: 1.91%
19,COc1ccccc1OP(C)(=O)Nc1c(C)n(C)n(-c2ccccc2)c1=O (stereo unspecified),inactive: -13.2%
20,N#[O+].[C-]#N.[C-]#N.[C-]#N.[C-]#N.[C-]#N.[Fe+2].[Na+].[Na+],inactive: -1.28%
21,COc1ccc(OP(C)(=O)Nc2ccc(Br)cc2)cc1 (stereo unspecified),inactive: 3.68%
22,CCN(CC)CC(O)COC(=O)C(O)(c1ccccc1)C1CCCCC1 (stereo unspecified),inactive: 6.25%
23,NNC(NN)NN.n1nc(-c2nn[nH]n2)n[nH]1,inactive: -3.88% [at 9.22 µM]
24,[NH4+].[O-][Cl+3]([O-])([O-])[O-],inactive: -2.1%
25,CCN(CCCl)Cc1ccccc1C,inactive: -27%
26,Cc1ccccc1NP(C)(=O)Nc1ccccc1C,inactive: 7.61%

row,Structure (SMILES),"activity change, positive = activation"
1,CP(=O)(Nc1ccc2c(c1)OCCO2)Oc1ccccc1 (stereo unspecified),inactive: -21.4%
2,CCOP(=O)(CC)OCC,inactive: 6.8%
3,CCOP(C)(=S)SCC(=O)NC(C)(CC)C(=O)O (stereo unspecified),inactive: -31.8%
4,Cc1ccc([N+](=O)[O-])c([N+](=O)[O-])c1,inactive: 4.11%
5,Cc1c([N+](=O)[O-])cccc1[N+](=O)[O-],inactive: -3.45%
6,CN(C)CCOC(=O)C(O)(c1ccccc1)C1CCCCC1 (stereo unspecified),inactive: 10.3%
7,CP(=O)(Nc1ccccc1)Oc1ccc(F)cc1 (stereo unspecified),inactive: -1.69%
8,CCN(CC)CCCOC(=O)C(O)(c1ccccc1)C1CCCCC1 (stereo unspecified),inactive: 6.05%
9,COc1ccc(OP(C)(=O)Nc2ccc(SC(F)(F)F)cc2)cc1 (stereo unspecified),inactive: 4.96%
10,CCOC(=O)c1ccc(NP(C)(=O)Oc2ccc(F)cc2)cc1 (stereo unspecified),inactive: -63.7%
11,Cc1cccc([N+](=O)[O-])c1[N+](=O)[O-],inactive: 0.795%
12,CCC(C)(OO)OOC(C)(CC)OO (stereo unspecified),inactive: 13.9%
13,O=C(OCCN1CCN(CCOCc2ccccc2)CC1)C(O)(c1ccccc1)c1ccccc1,inactive: -20.2%
14,CC(C)c1ccc(OP(C)(=O)Nc2ccc(SC(F)(F)F)cc2)cc1 (stereo unspecified),inactive: -21.7%
15,CP(=O)(Nc1ccccc1F)Oc1ccccc1 (stereo unspecified),inactive: 9.08%
16,CP(=O)(Nc1cccc(Br)c1)Oc1ccccc1 (stereo unspecified),inactive: -11.6%
17,Cc1cc(C)cc(OP(C)(=O)Nc2ccccn2)c1 (stereo unspecified),inactive: 4.32%
18,Cc1ccc(C)c(NP(C)(=O)Oc2ccccc2)c1 (stereo unspecified),inactive: -3.27%
19,Cc1cc(C)cc(OP(C)(=O)Nc2ccc(C)cc2C)c1 (stereo unspecified),inactive: -6.86%
20,CCOC(=O)c1ccc(NP(C)(=O)Oc2cc(C)cc(C)c2)cc1 (stereo unspecified),inactive: -7.22% [at 1.84 µM]
21,Cc1ccc([N+](=O)[O-])cc1[N+](=O)[O-],inactive: -1.5%
22,CC1=NCCc2c1[nH]c1ccccc21.O=[N+]([O-])c1cc([N+](=O)[O-])c(O)c([N+](=O)[O-])c1,inactive: 7.36%
23,O=[N+]([O-])c1cccc([N+](=O)[O-])c1,inactive: 15.9%
24,CP(=O)(Nc1ccc(SC(F)(F)F)cc1)Oc1ccccc1 (stereo unspecified),inactive: -17.4%
25,CCCOc1ccc(NP(C)(=O)Oc2ccc(Cl)cc2)cc1 (stereo unspecified),inactive: -14.5%
26,COc1ccccc1OP(C)(=O)Nc1c(C)cccc1C (stereo unspecified),inactive: -12.1%

row,Structure (SMILES),"activity change, positive = activation"
1,CN1CCCCC1COC(=O)C1(O)c2ccccc2CCc2ccccc21 (stereo unspecified),inactive: -3.05%
2,Cc1nc2ccc3ccccc3c2s1.O=[N+]([O-])c1cc([N+](=O)[O-])c(O)c([N+](=O)[O-])c1,inactive: -0.0653%
3,O=[N+]([O-])c1cc([N+](=O)[O-])c(-n2nnc3ccccc32)c([N+](=O)[O-])c1,inactive: 3.03%
4,CP(=O)(Nc1ccccn1)Oc1ccc(Cl)cc1 (stereo unspecified),inactive: -0.767%
5,CCOP(C)(=S)SCC(=O)NC(C)C(=O)O (stereo unspecified),inactive: -6.45%
6,Cc1cc(C)cc(OP(C)(=O)Nc2ccc(SC(F)(F)F)cc2)c1 (stereo unspecified),inactive: -6.16%
7,CP(=O)(NC(=O)Nc1ccccc1)Oc1ccccc1 (stereo unspecified),inactive: 2.99%
8,CP(=O)(Oc1ccccc1)OC(c1ccccc1)C(F)(F)F (stereo unspecified),inactive: -12.1%
9,[Au].[Au].c1ccc([PH+](c2ccccc2)c2ccccc2)cc1.c1ccc([PH+](c2ccccc2)c2ccccc2)cc1.n1n[nH]c(-c2nnn[nH]2)n1,inactive: -15.3% [at 9.22 µM]
10,Cc1cccc(C)c1OP(C)(=O)Nc1ccc(SC(F)(F)F)cc1 (stereo unspecified),inactive: -31.2%
11,COc1ccccc1OP(C)(=O)Nc1ccccc1 (stereo unspecified),inactive: 1.03%
12,CP(=O)(Nc1ccccc1Br)Oc1ccccc1 (stereo unspecified),inactive: -3.67%
13,CP(=S)(Nn1cnnc1)Oc1ccccc1 (stereo unspecified),inactive: 21.4%
14,N1=C(c2nnc(-c3nn[nH]n3)nn2)NNN1,inactive: -4.86% [at 9.22 µM]
15,COc1ccc(OP(C)(=O)Nc2cccc(F)c2)cc1 (stereo unspecified),inactive: -5%
16,Cc1cc(C)cc(OP(C)(N)=O)c1 (stereo unspecified),inactive: 2.74%
17,CCOC(=O)c1ccc(NP(C)(=O)Oc2ccccc2)cc1 (stereo unspecified),inactive: 1.26%
18,Cc1ccc(NP(C)(=O)Oc2ccccc2)c(C)c1 (stereo unspecified),inactive: 52.3%
19,COc1ccccc1OP(C)(=O)Nc1ccc(C)cc1 (stereo unspecified),inactive: -28.1%
20,Cc1cccc(C)c1OP(C)(N)=O (stereo unspecified),inactive: 15.3%
21,CC(C)(C)c1ccc(OP(C)(=O)Nc2ccc(SC(F)(F)F)cc2)cc1 (stereo unspecified),inactive: -11.1%
22,O=[N+]([O-])c1ccc2c(c1)C=Nc1ccccc1O2,inactive: 2.78%
23,O=[N+]([O-])[O-].[NH4+],inactive: -10.6%
24,CCN(CC)CCCOC(=O)C(O)(c1ccccc1)c1ccccc1,inactive: 26.4%
